From ChEMBL document CHEMBL1136147, “Sub-nanomolar hMC1R agonists by end-capping of the melanocortin tetrapeptide His-D-Phe-Arg-Trp-NH(2)” (Bioorg Med Chem Lett, 2003)

By UniProt entry, the sequences of proteins in these tests, tags left out.
UniProt P32245, whole entry: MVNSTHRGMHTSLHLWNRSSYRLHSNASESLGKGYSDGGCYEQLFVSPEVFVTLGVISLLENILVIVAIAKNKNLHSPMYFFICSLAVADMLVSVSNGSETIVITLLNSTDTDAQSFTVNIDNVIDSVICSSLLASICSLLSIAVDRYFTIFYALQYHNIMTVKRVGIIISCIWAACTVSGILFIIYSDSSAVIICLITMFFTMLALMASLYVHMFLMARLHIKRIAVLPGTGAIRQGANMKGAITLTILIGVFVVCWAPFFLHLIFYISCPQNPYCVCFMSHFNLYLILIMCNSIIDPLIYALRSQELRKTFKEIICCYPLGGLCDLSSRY

Tests used:
[1] = target: T1, Melanocortin receptor 4 (Homo sapiens, UniProt P32245); test: In vitro agonist potency was evaluated in HEK293 cells transfected with human melanocortin receptor (hMC4R); type: functional, cell-based
[2] = target: T1, Melanocortin receptor 4; test: Binding affinity towards human melanocortin 4 receptor (hMC4R)

SMILES	pEC50 [1]	pKi [2]
CC(=O)N[C@@H](Cc1c[nH]cn1)C(=O)N[C@@H](Cc1ccccc1)C(=O)N[C@@H](CCCN=C(N)N)C(=O)N[C@@H](Cc1c[nH]c2ccccc12)C(N)=O	7.23	6.55
NC(=O)[C@H](Cc1c[nH]c2ccccc12)NC(=O)[C@H](CCCN=C(N)N)NC(=O)[C@@H](Cc1ccccc1)NC(=O)[C@H](Cc1cnc[nH]1)NC(=O)CCCc1ccccc1	8.34	8.14

pEC50, pKi: −log10 of the molar value.
